Experimental data from ChEMBL document CHEMBL3862041, “Discovery of Novel Bruton's Tyrosine Kinase (BTK) Inhibitors Bearing a N,9-Diphenyl-9H-purin-2-amine Scaffold” (ACS Med Chem Lett, 2016).

By UniProt entry, the sequences of proteins in these tests, tags left out. Where a name states a change or a piece, a line headed by the entry shows the natural chain unless it says otherwise.
UniProt Q06187: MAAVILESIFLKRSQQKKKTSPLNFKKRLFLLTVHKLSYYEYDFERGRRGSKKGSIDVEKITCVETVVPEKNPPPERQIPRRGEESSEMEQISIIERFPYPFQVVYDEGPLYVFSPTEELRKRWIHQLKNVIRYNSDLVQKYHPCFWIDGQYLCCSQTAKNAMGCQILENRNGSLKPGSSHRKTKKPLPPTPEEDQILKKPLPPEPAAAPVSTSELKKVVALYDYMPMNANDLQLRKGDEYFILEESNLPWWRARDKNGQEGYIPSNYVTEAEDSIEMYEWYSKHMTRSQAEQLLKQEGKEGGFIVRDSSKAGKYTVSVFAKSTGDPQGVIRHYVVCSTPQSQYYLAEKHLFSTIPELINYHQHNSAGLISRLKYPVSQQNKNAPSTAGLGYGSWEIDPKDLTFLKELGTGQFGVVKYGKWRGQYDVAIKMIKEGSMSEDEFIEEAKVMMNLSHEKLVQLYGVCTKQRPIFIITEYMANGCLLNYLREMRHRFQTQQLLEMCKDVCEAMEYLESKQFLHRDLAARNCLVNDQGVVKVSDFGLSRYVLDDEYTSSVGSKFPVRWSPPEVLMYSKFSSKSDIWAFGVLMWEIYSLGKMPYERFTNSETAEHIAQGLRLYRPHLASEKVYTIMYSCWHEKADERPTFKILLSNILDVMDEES

Biological target: Tyrosine-protein kinase BTK (Homo sapiens, UniProt Q06187)
Test: Inhibition of recombinant human N-terminal His-tagged BTK expressed in baculovirus infected sf9 cells using poly(4:1 Glu,Tyr) as substrate by ADP-Glo kinase assay

C=CC(=O)Nc1cccc(Nc2nc(Nc3ccc(OCCOC)cc3)ncc2F)c1 [SPEBRUTINIB]
IC50: 0.6 nM
